From ChEMBL document CHEMBL3112560 (Bioorg Med Chem Lett, 2014) come the findings set out here.

The species named for assay [1] is Rattus norvegicus. Briefly: Inhibition of VGLUT in rat brain assessed as [3H]-L-Glu uptake into synaptic vesicles at 250 uM relative to control. The class given is tissue-based.
The nature of assay [2]: Inhibition of VGLUT-mediated [3H]-L-Glu uptake into synaptic vesicles in rat brain. The class given is tissue-based.

With `C[C@]12CC[C@@H]3c4ccc(OS(=O)(=O)O)cc4CC[C@H]3[C@@H]1CCC2=O` [ESTRONE SULFURIC ACID], the inhibition (in general, the drop in the measured response relative to a control, in per cent) in assay [1] came out at 52%. Further, inhibition in assay [2] was half-maximal at 121 µM (IC50).
